From US10215752B2, “Nanotube array for optical detection of protein-protein interactions” (MASSACHUSETTS INSTITUTE OF TECHNOLOGY, priority 2010, dated 2019)

Target: T1, PA-IIL lectin (Pseudomonas aeruginosa, UniProt Q9HYN5)
T1 construct: made in house; host or cells: E. coli BL21(DE3) Star
Type: binding
Settings: from concentration dependent curves, analyte to PA-IIL
Experimental: To increase the reproducibility of these sensors, an automated printing method of the chitosan gel was introduced (FIG. 35). Patterned glass microscope slides (Tekdon™) were inserted in a microarray printer (Digilab MicroSys System™), where the robotic head was programmed to dispense alternating layers of chitosan-SWNT (0.25 wt % chitosan (CHI), 1 vol % acetic acid, 30 ug/ml suspended (6,5) SWNT) and crosslinker (10 vol % glutaraldehyde). The suspended SWNT was made from Southwest Nanotechnologies, Inc. CoMoCAT® nanotubes sonicated in 0.25 wt % chitosan (CHI) and 1 vol % acetic acid for 45 minutes at 40% amplitude with a probe-tip sonicator (Cole Parmer, Model CV18). […] The chips were printed in a humidified enclosure (85% RH) at 25° C. and allowed to cross-link overnight in the same environment. Nickel-NTA groups were introduced as previously reported^8; see FIG. 3. […]
A custom-made near infrared inverted microscope (Zeiss D.1 Observer™) setup allowed us to probe the fluorescent emissions of our SWNT sensors (FIG. 26a). […] The SWNT were excited by a 785 nm laser (B&W Tek™—495 mW) and the emission was sent to a spectrometer (Princeton Instruments Acton SpectraPro 2500i Spectrograph™) and accompanying nIR camera (Intervac MOSIR Camera 350™) The spectra were collected via WinSpec software (Princeton Instruments™) and analyzed with custom Matlab (Mathworks™) code. […]

Fuc-Strept: model glycoprotein probe: biotinylated fucose glycan bound to streptavidin
kr: 0.0142 s⁻¹
